Earlier results, collected in patent US6403576B1, “Antifungal and antiparasitic compounds” (priority 1998, dated 2002).

Protein sequences, listed by entry. Tags and fused reporters are not part of them.
UniProt Q14534, whole entry: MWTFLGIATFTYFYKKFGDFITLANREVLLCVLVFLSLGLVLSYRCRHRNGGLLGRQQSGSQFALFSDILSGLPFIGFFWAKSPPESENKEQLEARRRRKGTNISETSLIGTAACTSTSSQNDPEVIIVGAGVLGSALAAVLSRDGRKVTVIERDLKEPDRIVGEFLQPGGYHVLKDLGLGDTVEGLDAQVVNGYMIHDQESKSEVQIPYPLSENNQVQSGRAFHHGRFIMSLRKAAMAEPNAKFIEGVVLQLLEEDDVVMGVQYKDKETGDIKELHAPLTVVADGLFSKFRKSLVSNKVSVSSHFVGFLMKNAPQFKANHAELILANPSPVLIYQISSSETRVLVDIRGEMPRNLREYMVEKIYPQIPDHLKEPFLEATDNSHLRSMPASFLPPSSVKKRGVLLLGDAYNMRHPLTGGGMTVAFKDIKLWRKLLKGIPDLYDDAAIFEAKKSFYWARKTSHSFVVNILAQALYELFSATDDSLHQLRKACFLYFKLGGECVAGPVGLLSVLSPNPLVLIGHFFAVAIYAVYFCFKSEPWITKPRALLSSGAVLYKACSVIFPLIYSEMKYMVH

Target: Squalene Oxidase (Homo sapiens, UniProt Q14534)
Settings: Abe et al, 1994; cited from earlier work

## CN(C/C=C/C#CC(C)(C)C)Cc1cccc2c(Cl)csc12
  IC50: 11 nM
